## Measured affinities in a library of Ab-14 heavy chain variants

From the AlphaSeq antibody data of Engelhart et al. 2022 (doi:10.1038/s41597-022-01779-4), copy in the FLAb collection.

All variants were tested on one target, the spike HR2 peptide PDVDLGDISGINAS (SARS-CoV-2).

Ab-14 is the parent antibody, in scFv form: VH, then a (GGGGS)3 linker, then VL. The light chain is unchanged in all variants.
VH: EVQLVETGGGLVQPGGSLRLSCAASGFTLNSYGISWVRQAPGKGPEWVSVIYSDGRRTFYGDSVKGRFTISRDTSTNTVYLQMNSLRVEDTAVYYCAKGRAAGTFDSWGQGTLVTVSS
VL: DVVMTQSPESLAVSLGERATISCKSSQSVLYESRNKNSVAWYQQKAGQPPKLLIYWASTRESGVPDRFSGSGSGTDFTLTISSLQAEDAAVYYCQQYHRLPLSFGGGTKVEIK

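The parent was found by panning a naive human phage display library on the peptide. Variants in AAYL49 differ from the parent at up to three CDR positions; double and triple changes were sampled at random. AlphaSeq pools MATa yeast showing the antibodies with MATalpha yeast showing the peptide. Binding brings cells together so that they mate, and sequencing counts the barcode pairs among the diploids. A regression on co-assayed BCL2-family reference pairs converts the normalised counts of each replicate to an apparent Kd. The assay was run in three technical replicates.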

Sequences are complete VH domains.
Every variant below is changed at R56 of the VH (sequential numbering).
Values are log10 of the apparent Kd in nM; lower means stronger binding.
"nd" means that the variant was in the library but no mating with the target was seen in that replicate; the authors take this as a sign of poor binding, and no number exists.
In this assay the parent's reference entry averaged 0.65; its copy inside this library read 4.11 (one replicate of three).
Empty control strains, which show no peptide, gave a signal in 15% of pairings with library AAYL49; the median was 4.06 and 95% of these signals were weaker than 2.83. No background was subtracted. The control count says in how many pairings with the empty strains this scFv gave a signal.

With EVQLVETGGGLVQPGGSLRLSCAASGFTLNSYGISWVRQAPGKGPEWVSVIYSDGCVTFYGDSVKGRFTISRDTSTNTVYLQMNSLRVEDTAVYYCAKGYAAGTFDSWGQGTLVTVSS the result was nd, nd, nd (controls 0 of 9).
With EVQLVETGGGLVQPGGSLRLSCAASGFTLNSKGISWVRQAPGKGPEWVSVIYSDGPRTSYGDSVKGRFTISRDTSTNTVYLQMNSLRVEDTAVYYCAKGRAAGTFDSWGQGTLVTVSS the result was 2.78, nd, 4.68 (controls 1 of 9).
With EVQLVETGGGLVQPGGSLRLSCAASGFTLNHYGISWVRQAPGKGPEWVSVIYSDGNRTFYGDSVKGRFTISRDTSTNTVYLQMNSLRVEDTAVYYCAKGQAAGTFDSWGQGTLVTVSS the result was 0.73, 0.88, 0.77 (controls 2 of 9).
With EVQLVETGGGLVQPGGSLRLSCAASGFTLNSYGISWVRQAPGKGPEWVSVIYSDSWRTFYGDSVKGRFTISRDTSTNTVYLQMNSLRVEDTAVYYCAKVRAAGTFDSWGQGTLVTVSS the result was nd, nd, nd (controls 1 of 9).
With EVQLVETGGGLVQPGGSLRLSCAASGFTLNSYGISWVRQAPGKGPEWVSVIYSDGWRTFYGDSVKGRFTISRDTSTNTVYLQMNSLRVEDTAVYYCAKGRAARTTDSWGQGTLVTVSS the result was nd, nd, nd (controls 0 of 9).
With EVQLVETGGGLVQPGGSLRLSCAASGFTLNSYGISWVRQAPGKGPEWVSVIQSDGMRTFYGKSVKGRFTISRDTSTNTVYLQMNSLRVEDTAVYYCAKGRAAGTFDSWGQGTLVTVSS the result was nd, nd, nd (controls 1 of 9).
With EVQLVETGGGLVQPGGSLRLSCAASGFTLNSHGISWVRQAPGKGPEWVSVIYSDGVRTFYGDGVKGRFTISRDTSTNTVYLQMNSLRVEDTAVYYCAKGRAAGTFDSWGQGTLVTVSS the result was 4.99, 5.50, 6.16 (controls 6 of 9).
With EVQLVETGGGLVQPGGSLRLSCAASGFTLNSYGISWVRQAPGKGPEWVSVIYSDGLRTFYGDSVKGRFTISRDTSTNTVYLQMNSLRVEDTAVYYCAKGRADGLFDSWGQGTLVTVSS the result was nd, nd, nd (controls 2 of 9).
With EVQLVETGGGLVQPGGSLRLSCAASGFTLNSWGISWVRQAPGKGPEWVSVIYSDGHWTFYGDSVKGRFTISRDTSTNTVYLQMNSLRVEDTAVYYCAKGRAAGTFDSWGQGTLVTVSS the result was nd, nd, nd (controls 0 of 9).
With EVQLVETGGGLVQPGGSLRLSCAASGFTLNSYGISWVRQAPGKGPEWVSVIYSDGMRTFYGDSVKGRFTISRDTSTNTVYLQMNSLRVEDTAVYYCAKGYAEGTFDSWGQGTLVTVSS the result was nd, nd, nd (controls 3 of 9).
With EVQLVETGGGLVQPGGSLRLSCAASGFTLNSYGISWVRQAPGKGPEWVSVIYSDGVRTFMGDSVKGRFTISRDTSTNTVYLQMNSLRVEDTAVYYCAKGRAAGTWDSWGQGTLVTVSS the result was nd, 3.33, nd (controls 1 of 9).
With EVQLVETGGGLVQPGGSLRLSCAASGFTLLSYGISWVRQAPGKGPEWVSVIYSDGIRTFYGDSVKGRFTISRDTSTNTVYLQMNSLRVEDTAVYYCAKGRAARTFDSWGQGTLVTVSS the result was nd, nd, nd (controls 0 of 9).
With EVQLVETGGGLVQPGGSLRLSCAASGFPLNSYGIPWVRQAPGKGPEWVSVIYSDGLRTFYGDSVKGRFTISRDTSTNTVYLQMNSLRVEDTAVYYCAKGRAAGTFDSWGQGTLVTVSS the result was nd, nd, nd (controls 0 of 9).
With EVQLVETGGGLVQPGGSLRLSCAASGFILNSYGISWVRQAPGKGPEWVSVIYSDGARTFYGDSVKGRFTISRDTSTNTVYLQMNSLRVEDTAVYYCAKGRAAGTFDSWGQGTLVTVSS the result was 1.11, 1.35, 1.62 (controls 1 of 9).
With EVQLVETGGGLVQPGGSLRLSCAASGFTLNSYGISWVRQAPGKGPEWVSVIYSDGWRTFYGDSVKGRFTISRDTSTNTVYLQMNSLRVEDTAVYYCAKGRAARTFDSWGQGTLVTVSS the result was nd, nd, 4.85 (controls 2 of 9).
With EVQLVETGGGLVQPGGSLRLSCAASGCTLNSYGISWVRQAPGKGPEWVSVIYSDGGRTFYGDSVKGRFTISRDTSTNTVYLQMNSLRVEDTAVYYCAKGRAAGTFDSWGQGTLVTVSS the result was nd, nd, nd (controls 1 of 9).
With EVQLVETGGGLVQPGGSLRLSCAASGFTLNSYGISWVRQAPGKGPEWVSVISSDGCRTVYGDSVKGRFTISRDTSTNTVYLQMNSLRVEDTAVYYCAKGRAAGTFDSWGQGTLVTVSS the result was nd, nd, nd (controls 1 of 9).
With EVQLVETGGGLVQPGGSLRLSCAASGFTLNSYGISWVRQAPGKGPEWVSVIISDGARTFYGDRVKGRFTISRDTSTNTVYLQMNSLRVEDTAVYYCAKGRAAGTFDSWGQGTLVTVSS the result was nd, nd, nd (controls 0 of 9).
With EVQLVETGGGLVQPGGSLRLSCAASGFTLNSYGISWVRQAPGKGPEWVSVIYSDGARDFYGDSVKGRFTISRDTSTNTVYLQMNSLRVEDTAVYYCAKGRAAGTFQSWGQGTLVTVSS the result was 5.27, nd, 3.73 (controls 2 of 9).
With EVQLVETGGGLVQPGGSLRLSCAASGFTLNSYGISWVRQAPGKGPEWVSVIYSDRLRTEYGDSVKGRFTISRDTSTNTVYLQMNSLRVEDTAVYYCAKGRAAGTFDSWGQGTLVTVSS the result was nd, 4.13, nd (controls 2 of 9).
With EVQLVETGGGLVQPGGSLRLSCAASGFTLNSYWISWVRQAPGKGPEWVSVIYSDGQRTFYGDSFKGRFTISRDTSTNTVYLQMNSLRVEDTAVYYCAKGRAAGTFDSWGQGTLVTVSS the result was nd, 3.27, 3.85 (controls 1 of 9).
With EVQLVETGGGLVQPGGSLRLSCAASGFTLNSYGISWVRQAPGKGPEWVSVIYSDGDRTCYGPSVKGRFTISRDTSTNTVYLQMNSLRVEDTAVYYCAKGRAAGTFDSWGQGTLVTVSS the result was 5.01, 2.68, nd (controls 1 of 9).

Excerpt, the first 2 entries:

The variant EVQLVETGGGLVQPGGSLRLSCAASGFTLNSYGISWVRQAPGKGPEWVSVIYSDGCVTFYGDSVKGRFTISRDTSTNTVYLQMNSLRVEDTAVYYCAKGYAAGTFDSWGQGTLVTVSS gave nd, nd, nd (controls 0 of 9).
The variant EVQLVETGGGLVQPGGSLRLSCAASGFTLNSKGISWVRQAPGKGPEWVSVIYSDGPRTSYGDSVKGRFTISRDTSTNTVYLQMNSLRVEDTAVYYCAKGRAAGTFDSWGQGTLVTVSS gave 2.78, nd, 4.68 (controls 1 of 9).